Antibody variant affinities, Ab-14 light chain, assay 1

Antigen: PDVDLGDISGINAS, a 14-residue peptide of the SARS-CoV-2 spike HR2 region.

Ab-14 is the parent antibody, in scFv form: VH, then a 15-residue (Gly4Ser)3 linker, then VL. The heavy chain is unchanged in all variants.
VH: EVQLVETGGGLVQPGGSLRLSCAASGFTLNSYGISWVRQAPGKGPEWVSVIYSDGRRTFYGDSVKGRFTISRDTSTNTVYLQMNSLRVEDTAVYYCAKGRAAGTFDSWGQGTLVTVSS
VL: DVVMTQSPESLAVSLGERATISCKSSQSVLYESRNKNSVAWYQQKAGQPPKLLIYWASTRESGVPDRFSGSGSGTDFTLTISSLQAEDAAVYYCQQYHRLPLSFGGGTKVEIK

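The starting antibody came from a phage panning campaign against this peptide. Variants in AAYL50 differ from the parent at up to three CDR positions; double and triple changes were sampled at random. The assay is AlphaSeq: two haploid yeast populations carry antibody and antigen on their surface. After mating in shaken culture at 30 °C for 16 h, diploids were selected and their barcode pairs sequenced. Read counts were normalised to the haploid input and turned into Kd by a linear fit to BCL2-family pairs of known affinity, for each replicate. Mating was done three times.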

Variants are written as CDR1, CDR2 and CDR3 of the light chain (limits as in the source). Parent: KSSQSVLYESRNKNSVA, WASTRES, QQYHRLPLS.
Affinities are written as log10 Kd with Kd in nM; a lower number is a better binder.
Replicates are averaged; those with no signal do not enter the mean.
Where no diploid with the target was found in that replicate, the entry reads "n.d.": below detection, most likely a poor binder, though not proof of it.

| CDR-L1 | CDR-L2 | CDR-L3 | replicates, log10 nM | mean log10 Kd (nM) | empty controls |
|---|---|---|---|---|---|
| KSSQSVLMESRNKNSVG | WASTRES | QMYHRLPLS | n.d. / n.d. / n.d. | n.d. | 0/9 |
| KSSQSVLYHSMNKNSVA | WASCRES | QQYHRLPLS | 1.46 / 1.75 / 1.41 | 1.54 | 1/9 (3.05) |
| KHSQSVLYESYNKNSVA | WASTRES | QQYHWLPLS | 4.49 / 3.69 / 5.47 | 4.55 | 6/9 (4.96) |
| KSSQSVLYESACKNSVA | WASTRES | QDYHRLPLS | 1.31 / 1.06 / 1.54 | 1.30 | 0/9 |
| KSSQSVLYESRNKNSVA | WASSPES | QQYHRLPQS | n.d. / 2.83 / n.d. | 2.83 | 3/9 (3.65) |
| KSSQSVLYESRNKNSVA | WASWRES | IEYHRLPLS | 2.77 / 2.78 / 2.40 | 2.65 | 6/9 (4.06) |
| QSSQSVLYESRNKNSVA | WASTRES | QQYHRLPNT | 0.76 / 1.04 / 0.90 | 0.90 | 1/9 (3.89) |
| KSSQSVLYESREKNSVA | WAPTRES | QQYHRLPHS | 3.60 / 3.36 / 4.61 | 3.86 | 5/9 (3.86) |
| KSEQSVLYESRNKNIVA | WAYTRES | QQYHRLPLS | 3.84 / n.d. / 5.46 | 4.65 | 2/9 (4.24) |
| KSSQSVLYESRNKNSVA | WASVRRS | QQAHRLPLS | 1.13 / 1.20 / 1.33 | 1.22 | 8/9 (4.54) |
| KSSQSVLYESRNKLSNM | WASTRES | QQYHRLPLS | n.d. / n.d. / n.d. | n.d. | 0/9 |
| KSSQSVLYESGTKNSVA | WASTRES | QQYDRLPLS | 1.10 / 1.20 / 1.16 | 1.15 | 2/9 (4.05) |
| VSSQSVLYESRNKNSVA | IASTRES | QQYHRLPCS | 6.22 / 3.65 / n.d. | 4.94 | 2/9 (4.71) |
| KSSQSQLYESLNKNSHA | WASTRES | QQYHRLPLS | n.d. / n.d. / n.d. | n.d. | 4/9 (3.96) |
| KSSQSILYESRNKNSVA | WASTRES | QQYHRSPLG | n.d. / n.d. / n.d. | n.d. | 1/9 (3.50) |
| KSHQSVLYESRNKNSVA | WANTRES | QQYHRAPLS | n.d. / n.d. / n.d. | n.d. | 0/9 |
| KSSQSVLYELRNKNSVA | WASTRES | QQYHRLPGS | n.d. / 4.87 / 3.83 | 4.35 | 1/9 (3.18) |
| KSSQSVLYEEENKNSVA | WASTRES | QQYHRLILS | 0.21 / 0.53 / 0.15 | 0.30 | 0/9 |
| KSNLSVLYESRNKNSVA | WASVRES | QQYHRLPLS | n.d. / n.d. / n.d. | n.d. | 0/9 |
| KSSQSVLYRSRNKNSVA | FASTRES | QQYHRLPLS | 2.72 / 2.26 / 2.25 | 2.41 | 0/9 |
| KHNQSVLYESRNKNSVA | WASTREC | QQYHRLPLS | 2.49 / 1.91 / 2.76 | 2.38 | 0/9 |
| KSSHSVLYESRNKNSVA | WASTRES | QQYAMLPLS | 0.70 / 0.98 / 0.73 | 0.80 | 0/9 |
| KSAQSVLYESRNKNSVA | WASARES | QQYLRLPLS | n.d. / n.d. / n.d. | n.d. | 0/9 |
| KSSQSVLYESRNKNSVA | WASTREM | QGYHRRPLS | n.d. / n.d. / n.d. | n.d. | 0/9 |
| KSSQSVLYESRHKNKVA | WASTRES | QQYHRSPLS | n.d. / n.d. / n.d. | n.d. | 2/9 (4.05) |
| KSSQTVLYESVNKNMVA | WASTRES | QQYHRLPLS | 2.42 / 2.30 / 2.49 | 2.40 | 3/9 (4.26) |
| KSSCSVLYESRNKNSVA | WASTMES | QQYHRAPLS | n.d. / n.d. / n.d. | n.d. | 0/9 |
| KSSQSVLYEQRNKYSVA | WAQTRES | QQYHRLPLS | n.d. / n.d. / n.d. | n.d. | 0/9 |
| KSSQSNLYESRNKNSVA | WASTRES | QHYSRLPLS | 0.60 / 0.88 / 0.85 | 0.78 | 3/9 (3.74) |
| KSSQSVLYEYRNKNSVA | WASTRES | KQYHFLPLS | 1.97 / 2.28 / 1.97 | 2.07 | 2/9 (3.69) |
| KSSQSVLYESRNFNSVA | WASRRES | QQYHYLPLS | 1.79 / 2.39 / 2.35 | 2.18 | 1/9 (3.90) |

Top 3 of the variants detected in all replicates, tightest first:

CDR-L1,CDR-L2,CDR-L3,"replicates, log10 nM",mean log10 Kd (nM),empty controls
KSSQSVLYEEENKNSVA,WASTRES,QQYHRLILS,0.21 / 0.53 / 0.15,0.30,0/9
KSSQSNLYESRNKNSVA,WASTRES,QHYSRLPLS,0.60 / 0.88 / 0.85,0.78,3/9 (3.74)
KSSHSVLYESRNKNSVA,WASTRES,QQYAMLPLS,0.70 / 0.98 / 0.73,0.80,0/9

Parent in this assay: reference entry 0.65, copy in this library 1.68.
As a blank, each scFv also met three strains without target: over library AAYL50, 18% of these pairings were detected, typically at 4.19 and seldom below 2.99. For each scFv, signals with the empty controls are counted beside the result, with their mean in brackets.

Reference: Engelhart et al. 2022, doi:10.1038/s41597-022-01779-4. File: FLAb, binding data.